Patent US20250073242A1, “SLC26A3 INHIBITORS AND USE THEREOF” (THE REGENTS OF THE UNIVERSITY OF CALIFORNIA, priority 2021, published 2025)

Amino acid sequences for entries named in this document (tags omitted).
UniProt Q9WVC8, whole entry: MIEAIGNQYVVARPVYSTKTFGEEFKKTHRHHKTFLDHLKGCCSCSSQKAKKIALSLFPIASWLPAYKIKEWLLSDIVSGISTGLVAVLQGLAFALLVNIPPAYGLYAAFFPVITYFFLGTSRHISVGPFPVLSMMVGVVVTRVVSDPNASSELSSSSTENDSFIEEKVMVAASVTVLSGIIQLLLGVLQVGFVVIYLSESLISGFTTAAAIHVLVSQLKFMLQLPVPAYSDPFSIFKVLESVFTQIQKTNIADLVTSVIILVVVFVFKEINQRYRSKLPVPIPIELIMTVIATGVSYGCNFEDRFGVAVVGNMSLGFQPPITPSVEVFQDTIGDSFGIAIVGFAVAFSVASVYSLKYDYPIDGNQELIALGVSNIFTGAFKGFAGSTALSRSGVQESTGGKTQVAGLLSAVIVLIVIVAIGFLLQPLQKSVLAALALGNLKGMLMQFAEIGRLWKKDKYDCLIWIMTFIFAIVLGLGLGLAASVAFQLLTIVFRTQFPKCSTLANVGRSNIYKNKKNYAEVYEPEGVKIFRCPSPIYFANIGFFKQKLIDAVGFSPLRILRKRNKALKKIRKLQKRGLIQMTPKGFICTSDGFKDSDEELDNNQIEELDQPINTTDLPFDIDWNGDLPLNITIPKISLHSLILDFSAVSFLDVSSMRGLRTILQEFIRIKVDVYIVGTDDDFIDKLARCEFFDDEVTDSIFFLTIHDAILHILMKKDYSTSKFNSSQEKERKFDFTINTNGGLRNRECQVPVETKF

Target: SLC26A3 (Mus musculus, UniProt Q9WVC8)
Assay: SLC26A3 inhibition, concentration-dependence (high throughput screening and structure-activity studies)
Type: cell-based
Details: Class I, Table 5

Structure (SMILES)	IC50
O=C(Nc1cccc(-c2nc3ccccc3c(=O)o2)c1)c1ccccc1Br	100 nM
O=C(Nc1cccc(-c2nc3ccccc3c(=O)o2)c1)c1ccc(Cl)cc1	260 nM
